The values below come from patent publication US6790958B2, “Purine inhibitors of cyclin dependent kinase 2 & IKBA” (priority 1996, dated 2004).

The test addresses CDK2 (Homo sapiens, UniProt P24941). The test is described as follows: CDK2 assay (histone H1 phosphorylation, 32P-ATP filter assay). The format is biochemical. To be noted: concentration required to inhibit CDK2 activity by 50%; histone H1, 30 μM ATP, 30° C., 30 min; read-out: IC50 (μg/mL) enzyme (converted).

Molecules are shown by their SMILES.

Consider `CC(C)n1cnc2c(NCc3ccc(F)cc3)nc(NCCN)nc21`, for which the IC50 is 495 nM.
